Target: TGFβ R1 (Homo sapiens, UniProt P36897)
Assay: TGFβ R1 autophosphorylation protocol (33P-ATP, phosphocellulose filter plate)
Settings: read-out: IC50 for Kinase Inhibition, 10 uM ATP, 170 nM TGFβ R1, 20 minutes at room temperature
Experimental: The compounds of the invention were tested for their ability to inhibit TGFβ by a TGFβ R^1 autophosphorylation protocol. This was conducted as follows: Compound dilutions and reagents were prepared fresh daily. Compounds were diluted from DMSO stock solutions to 2 times the desired assay concentration, keeping final DMSO concentration in the assay less than or equal to 1%. TGFβ R1 was diluted to 4 times the desired assay concentration in buffer+DTT. ATP was diluted into 4× reaction buffer, and gamma-^33P-ATP was added at 60 uCi/mL.
The assay was performed by adding 10 ul of the enzyme to 20 ul of the compound solution. The reaction was initiated by the addition of 10 ul of ATP mix. Final assay conditions included 10 uM ATP, 170 nM TGFβ R1, and […] in 20 mM MOPS, pH7. The reactions were incubated at room temperature for 20 minutes. The reactions were stopped by transferring 23 ul of reaction mixture onto a phosphocellulose 96-well filter plate, which had been pre-wetted with 15 ul of 0.25M H3PO4 per well. After 5 minutes, the wells were washed 4× with 75 mM H3PO4 and once with 95% ethanol. The plate was dried, scintillation cocktail was added to each well, and the wells were counted in a Packard TopCount microplate scintillation counter.

By UniProt entry, the sequences of proteins in these tests, tags left out. Residues count along the entry.
UniProt P36897, 34-503 limits assumed: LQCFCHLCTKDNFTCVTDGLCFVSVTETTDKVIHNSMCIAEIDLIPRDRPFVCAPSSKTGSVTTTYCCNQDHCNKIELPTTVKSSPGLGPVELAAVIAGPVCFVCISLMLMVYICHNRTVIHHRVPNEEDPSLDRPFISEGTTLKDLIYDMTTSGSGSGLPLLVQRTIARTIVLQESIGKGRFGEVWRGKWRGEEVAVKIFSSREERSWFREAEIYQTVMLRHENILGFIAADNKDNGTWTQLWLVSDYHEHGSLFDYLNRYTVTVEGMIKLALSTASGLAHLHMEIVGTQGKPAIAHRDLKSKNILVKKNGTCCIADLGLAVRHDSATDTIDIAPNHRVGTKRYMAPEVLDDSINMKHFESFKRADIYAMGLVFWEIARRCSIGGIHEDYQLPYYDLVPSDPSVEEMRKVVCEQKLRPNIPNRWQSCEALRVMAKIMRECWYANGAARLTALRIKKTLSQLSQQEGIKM

## CNC(=NC#N)NCCNC(=O)c1cnccc1Nc1nc(-c2cc(Cl)ccc2F)ncc1OC
  IC50: 140 nM
